This test has as its target T1, Acyl-CoA:cholesterol acyltransferase (Oryctolagus cuniculus, UniProt Q95214).
T1 sequence (Q95214 whole entry): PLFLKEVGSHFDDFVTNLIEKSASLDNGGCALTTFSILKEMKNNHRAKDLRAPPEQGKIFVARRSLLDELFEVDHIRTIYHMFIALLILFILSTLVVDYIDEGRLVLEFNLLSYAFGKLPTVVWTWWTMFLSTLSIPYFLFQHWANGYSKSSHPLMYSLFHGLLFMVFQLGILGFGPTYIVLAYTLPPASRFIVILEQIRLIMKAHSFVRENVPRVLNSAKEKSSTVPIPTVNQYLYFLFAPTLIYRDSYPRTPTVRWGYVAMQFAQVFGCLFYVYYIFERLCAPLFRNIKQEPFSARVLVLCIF
Nature of the test: Inhibition of ACAT in Japanese White rabbit liver microsomes. The arrangement: species or system Microsome.

By IC50 is commonly meant the midpoint of a concentration-inhibition curve. Read a high IC50 as lower potency.

`CCCCCCCCN1CCc2c(C)cc(C)c(NC(=O)C(C)(C)C)c21` had an IC50 of 24 nM.

Source of the values: ChEMBL document CHEMBL1153475, “Novel indoline-based acyl-CoA: cholesterol acyltransferase inhibitor: Effects of introducing a methanesulfonamide group on physicochemical properties and biological activities” (Bioorg Med Chem, 2009).
